In publication PMC3018526, “Allosteric Interactions between the Myristate- and ATP-Site of the Abl Kinase” (PLoS ONE, 2011) one finds IC50 data, which are given here for one compound.

Protein sequences, listed by entry. Tags and fused reporters are not part of them. Residues count along the entry.
UniProt P00519, 46-515: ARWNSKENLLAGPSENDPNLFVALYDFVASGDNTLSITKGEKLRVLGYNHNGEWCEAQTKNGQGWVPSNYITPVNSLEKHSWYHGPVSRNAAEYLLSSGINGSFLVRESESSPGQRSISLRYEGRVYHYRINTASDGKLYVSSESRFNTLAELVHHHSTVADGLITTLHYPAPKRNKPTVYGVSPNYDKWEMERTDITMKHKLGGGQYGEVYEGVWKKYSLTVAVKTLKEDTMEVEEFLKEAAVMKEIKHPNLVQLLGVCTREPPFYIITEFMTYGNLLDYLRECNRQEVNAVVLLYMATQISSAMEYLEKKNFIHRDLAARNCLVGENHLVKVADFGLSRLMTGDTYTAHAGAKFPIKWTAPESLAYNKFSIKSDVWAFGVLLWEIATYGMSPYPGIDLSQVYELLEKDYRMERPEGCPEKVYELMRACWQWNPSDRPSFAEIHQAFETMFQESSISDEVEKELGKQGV

For orientation: IC50 means the midpoint of a concentration-inhibition curve. A high value points to lower potency.

For this assay, the target named is T1, Abl kinase (c-Abl), wild-type (Homo sapiens, UniProt P00519).
T1 construct: gene ABL1
The assay is described as follows: biochemical.

For the compound `O=C(NCCO)c1cccc(-c2cc(Nc3ccc(OC(F)(F)F)cc3)ncn2)c1` [GNF-5], it took 220 nM to reach half-maximal inhibition (IC50).
